{
  "sequences": {"note": "Sequences of proteins named here, by UniProt entry; tags and fusion partners are left off.", "UniProt P18089, whole entry": "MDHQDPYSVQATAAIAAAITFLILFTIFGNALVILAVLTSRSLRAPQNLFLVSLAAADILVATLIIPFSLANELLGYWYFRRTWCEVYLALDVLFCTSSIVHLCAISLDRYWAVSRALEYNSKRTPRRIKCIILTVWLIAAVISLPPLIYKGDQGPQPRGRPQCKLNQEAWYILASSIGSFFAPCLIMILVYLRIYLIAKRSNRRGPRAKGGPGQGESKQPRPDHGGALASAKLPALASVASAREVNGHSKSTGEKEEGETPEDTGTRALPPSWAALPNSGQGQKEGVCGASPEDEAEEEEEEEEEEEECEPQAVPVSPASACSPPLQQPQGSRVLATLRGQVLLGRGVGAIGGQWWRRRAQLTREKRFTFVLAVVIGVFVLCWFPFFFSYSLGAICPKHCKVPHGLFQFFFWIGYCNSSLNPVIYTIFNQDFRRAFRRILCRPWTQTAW"},
  "source": "patent US11065232B2",
  "about": "“Dihydrotetrabenazine for the treatment of anxiety and psychoses” (ADEPTIO PHARMACEUTICALS LIMITED, priority 2017, dated 2021)",
  "target": "alpha 2B (h) (antagonist radioligand) (Homo sapiens, UniProt P18089)",
  "assay": "Receptor protein binding studies, alpha 2B",
  "text": "The four 3,11b trans-dihydrotetrabenazine isomers (+)-α, (−)-α, (+)-β and (−)-β were subjected to specific binding assays to test their ability to bind to the receptors and transporter proteins described below. The results are set out in Table 1",
  "data": [
    {"substance": "(+)-α-dihydrotetrabenazine [(+)-Alpha]", "values": [
      {"measurement": "% Inhibition of specific binding", "setting": "CONC 1.0E−05 (unit not given)", "result": "−11", "unit": "%"},
      {"measurement": "% Inhibition of specific binding", "setting": "CONC 1.0E−06 (unit not given)", "result": "−17", "unit": "%"}
    ]},
    {"substance": "(+)-β-dihydrotetrabenazine [(+)-Beta]", "values": [
      {"measurement": "% Inhibition of specific binding", "setting": "CONC 1.0E−05 (unit not given)", "result": "−1", "unit": "%"},
      {"measurement": "% Inhibition of specific binding", "setting": "CONC 1.0E−06 (unit not given)", "result": "−19", "unit": "%"}
    ]},
    {"substance": "(−)-α-dihydrotetrabenazine [(−)-Alpha]", "values": [
      {"measurement": "% Inhibition of specific binding", "setting": "CONC 1.0E−05 (unit not given)", "result": 8, "unit": "%"},
      {"measurement": "% Inhibition of specific binding", "setting": "CONC 1.0E−06 (unit not given)", "result": "−22", "unit": "%"}
    ]}
  ]
}
